# Rows were chosen to be rich in hits. Some 0.14% of all compounds tested hit in one or more screens of this group.
# Rango complex inh = Rango-importin beta binding inhibition | Q14974 | Rango CFP/YFP FRET sensor + importin beta, 45 min | Potency, µM (series often up to 92.2 µM) | 340,000 tested, 0.031% active; also: nearly all actives have a fitted effect of over 15% in size
#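 Inhibition scored from the CFP 486 nm/YFP 530 nm FRET ratio 45 min after adding 0.125 microM importin beta to 50 nM Rango biosensor preincubated 5 min with compound (room temperature, PBS with DTT, Tween-20, BSA). No-importin wells as positive control.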
# RGS4 inhibitor = inhibitors of human regulator of G protein signaling 4 | P49798 | Transcreener GDP fluorescence polarization, RGS4-accelerated GTP hydrolysis | Potency, µM (series often up to 114 µM), actives largely listed as inhibitors | 390,000 tested, 0.039% active | AID 504845; active = well fitted inhibition curve with a large enough effect; inconclusive = small, poorly fitted or top-dose-only effect; inactive = no such curve, though single readings can be large or run the other way; also: nearly all actives have a fitted effect of over 75% in size
#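 MLSMR compounds (23 nl, pin-transferred) preincubated 10 min at room temperature with a 500nM (2x) first reagent, then RGS4 at 900nM (2x) plus Transcreener GDP mix added; fluorescence polarization (620/688 nm) read before and after 90 min at 30 °C.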
# Rango release inh = inhibitors of RanGTP-induced Rango-importin beta complex dissociation. Potency, µM (doses to about 46.1 µM). Biochemical FRET Rango-importin beta, RanGTP-induced dissociation. AID 540253. 340,000 tested, 0.071% active. O95149+P62826; also: nearly all actives have a fitted effect of over 45% in size
#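 FRET read at 45 min, room temperature: inhibitors block the CFP/YFP signal rise when RanGTP (0.6 uM Ran, 2 mM GTP, 0.2 uM RCC1) frees Rango (0.1 uM) from importin beta (0.25 uM). Pre-read after 5 min compound exposure flags interference.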
# ERG-DNA inh = inhibitors of human ERG Ets domain-DNA interaction. P11308. fluorescence polarization, His-ERG Ets domain / labelled DNA. Potency, µM (series often up to 76.9 µM), most hits filed as inhibitors. 370,000 tested, 0.028% active; active = well fitted inhibition curve with a large enough effect in the polarisation, with a control signal flat; inconclusive = small, poorly fitted or top-dose-only effect, or effect the other way, or a change in a side signal; inactive = no such curve, though single readings can be large or run the other way; the % refers to the polarisation;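 also: polarization taken with two DNA probes labelled with fluorescein and Texas red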
#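 His-tagged ERG Ets domain (1 uM in the protein solution; 300mM KCl, 50mM Tris-HCl, 1mM EDTA, 1mM DTT, pH 7.5) received compound, then a probe mix of 5 nM fluorescein-DNA and 100nM Texas-615-DNA. Fluorescence polarization was read for both dyes.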
# A number is an active result; 0 = inactive; ? = inconclusive; - = no result given; ! = not confirmed by another sample; [ ] = dose if it differs, or a comment. Unless noted, calls follow the shape of the full dose curve.
SMILES,Rango complex inh,RGS4 inhibitor,Rango release inh,ERG-DNA inh
CN1C(=O)c2cccc3c(S(N)(=O)=O)ccc1c23,?,0,0.581µM,0
Cc1ccccc1NS(=O)(=O)c1ccc2c3c(cccc13)C(=O)N2C,?,0,?,0
CCOC(=O)CC1=C(C(=O)OCC)C(c2cc(OC)c(OC)cc2OC)C(C#N)=C(N)O1 (centres undefined),?,0,14.6µM,0
CCOC(=O)CC1=C(C(=O)OCC)C(c2ccc(OC)c(OC)c2)C(C#N)=C(N)O1 (centres undefined),?,0,0,0
Oc1ccccc1C1C=C(c2ccc3c(c2)OCO3)NC(c2ccc(F)c(Br)c2)N1 (centres undefined),-,0,-,-
COc1ccccc1NC(=O)c1c(NC(=O)c2ccco2)sc2c1CCC2,?,0,20.6µM,-
COc1ccccc1NC(=O)c1c(NC(=O)c2ccco2)sc2c1CCC(C(C)(C)C)C2 (centres undefined),-,0,-,0
CCc1ccc(NCc2cc3ccc(OC)cc3n(CC(=O)Nc3c(C)cc(C)cc3C)c2=O)cc1,-,0,-,0
O=C(O)[C@H]1C[C@@H](CP(=O)(O)O)CCN1,-,0,-,-
CCCCCNc1nc2sc3c(c2c(=O)n1-c1cccc(Cl)c1)CCN(C)C3,?,0,16.4µM,0
Cc1cc(=O)oc2cc(O)cc(OCc3ccccc3)c12,?,0,8.2µM,0
CC(=O)NC1=CC(=O)c2nonc2C1=O,-,0,-,-
Cc1cccc(CN2C(=O)N/C(=C/c3cc(C)n(-c4cc(C)ccn4)c3C)C2=O)c1,?,0,13µM[inhibitor],0
Cc1cc2nn(-c3ccc(F)cc3)nc2cc1N,?,?,9.2µM,0
CC(=O)Nc1ccc(NS(=O)(=O)c2ccc3[nH]c4c(c3c2)CCCCC4)cc1,-,0,-,0
Cc1cc(C)c(S(=O)(=O)NCC(c2ccco2)S(=O)(=O)c2cccs2)c(C)c1 (centres undefined),-,0,-,0
COc1ccccc1-c1nn(CCC(=O)Nc2cccc(C(C)=O)c2)c2nc(C)cc(C)c12,-,0,-,0
C=CCOc1ccc(C(c2c(C(=O)O)[nH]c3ccccc23)c2c(C(=O)O)[nH]c3ccccc23)cc1,0,0,0,35.5µM
O=C(O)c1[nH]c2ccccc2c1C(c1ccccc1)c1c(C(=O)O)[nH]c2ccccc12,0,0,0,0
CC(C)C[C@@H](N)C(=O)O,-,37.7µM,-,-
C[C@H](N)C(=O)O,-,0,-,-
C[C@@H](N)C(=O)O,-,21.2µM!,-,-
CC(C)=CC[C@@H](O)C1=CC(=O)c2c(O)ccc(O)c2C1=O,-,0,-,-
S=C(NCCCc1cnc[nH]1)NCCCN(CCc1ccc(Cl)cc1)c1ccc(Br)cn1,-,0,-,-
CC(C(=O)O)N1C(=O)C2C3CC(C2C1=O)C1C(c2ccccc2)c2sc(=O)[nH]c2SC31 (centres undefined),?,0,23.1µM,0
SMILES,Rango complex inh,RGS4 inhibitor,Rango release inh,ERG-DNA inh
Cc1cc(=O)oc2c(CN3CCCC3)c(O)c(Cl)cc12,?,0,14.6µM,0
Cc1cc(=O)oc2c(CN3CCCCC3)c(O)c(Cl)cc12,?,0,?,0
Cc1nn2c(c1-c1ccc(Cl)cc1)N=C(c1ccco1)CC2c1ccccc1 (centres undefined),58µM,0,0,0
O=C(Nc1c(Cl)cc([N+](=O)[O-])cc1Cl)c1cc(Cl)ccc1O,-,0,-,-
COc1cccc(C2=CC(c3ccccc3O)NC(C)(C)N2)c1 (centres undefined),-,0,-,-
COc1ccc(C2C(C#N)=C(N)OC3=C2C(=O)CC(C)(C)C3)c([N+](=O)[O-])c1OC (centres undefined),?,0,23.1µM,0
O=C1/C(=C/c2cccs2)Sc2ccccc21,?,0,18.4µM,?
O=C1Nc2ccccc2S/C1=C/c1cccs1,?,0,?,0
CC(C)[C@@H]1CC[C@@H](C)C[C@@H]1P(=O)(c1ccccc1)c1ccccc1,-,0,-,-
C=Cc1c(C)c2cc3[nH]c(cc4nc(cc5nc(cc1[nH]2)C(C)=C5CCC(=O)O)C(CCC(=O)O)=C4C)c(C)c3C=C,?,9.47µM!,0,0
O=C1C(SCCO)=C(SCCO)C(=O)c2ccccc21,0,3.36µM,0,12.6µM
CC1=C(SCc2ccccc2)C(=O)c2ccccc2C1=O,0,0,0,0
Cc1ccc(/C=C/C(=O)c2ccccc(=O)c2O)c(C)c1,?,0,8.2µM,0
CC(=O)c1ccc(NC(=O)CN2C(=O)/C(=C/C=C/c3ccccc3)SC2=S)cc1,29.1µM,?,0,0
CCOc1ccccc1C1CC(=O)NC(C)=C1C(=O)OCc1ccc(C)cc1 (centres undefined),-,0,-,0
COc1cccc(-c2nc(CS(=O)CC(=O)N3CCN(c4cccc(C(F)(F)F)c4)CC3)c(C)o2)c1 (centres undefined),-,0,-,0
CCC1(C)Cc2nc3sc(C(=O)O)c(N)c3cc2CO1 (centres undefined),?,0,18.4µM,0
NCCCN(Cc1ccc(Cl)c(Cl)c1)c1ccc(Br)cn1,-,0,-,-
CCCCCCCCNS(=O)(=O)CCNCCc1ccccc1,73.1µM,0,0,0
COc1cc2c(OC(C)=O)c3c(c(-c4ccc5c(c4)OCO5)c2cc1OC)C(=O)OC3,?,0,16.4µM,0
COc1cccc2c1C(=O)c1c(O)c3c(c(O)c1C2=O)CC(O)(C(C)=O)CC3OC1CC(N(C)C)C(O)C(C)O1 (centres undefined),0,0,0,1µM
COc1cccc2c1C(=O)c1c(O)c3c(c(O)c1C2=O)C[C@@](O)(C(=O)CO)C[C@@H]3OC1CC(N)C(O)C(C)O1 (some centres undefined),0,0,0,?
Cn1cnc(S(=O)(=O)N2CCC(C(=O)Nc3ccc(OC(F)(F)F)cc3)CC2)c1,-,0,-,0
CC(C)c1c(C#N)c(N)nc(SCC(=O)c2cc3ccccc3oc2=O)c1C#N,?,0,0,0
N#Cc1ccc(-c2ccccc2)nc1SCC(=O)c1cc2ccccc2oc1=O,?,0,16.4µM,0
SMILES,Rango complex inh,RGS4 inhibitor,Rango release inh,ERG-DNA inh
COc1ccc(OC)c(CCNC(=O)c2cc3c(-c4ccccc4F)nn(C)c3s2)c1,-,0,-,0
Nc1nc(Cl)nc2c1ncn2[C@@H]1O[C@H](COP(=O)(O)OP(=O)(O)OP(=O)(O)O)[C@@H](O)[C@H]1O,-,0.532µM,-,-
Nc1ncnc2c1ncn2C1O[C@H](CO)[C@@H](O)[C@@H]1O (some centres undefined),0,0,0,0
Nc1ncnc2c1ncn2[C@@H]1O[C@H](COP(=O)(O)OP(=O)(O)OP(=O)(O)OP(=O)(O)OC[C@@H]2O[C@H](n3cnc4c(N)ncnc43)[C@@H](O)[C@H]2O)[C@@H](O)[C@H]1O,-,2.99µM,-,-
Oc1ccc2ccccc2c1C=Nc1ccc(N2CCOCC2)cc1,36.6µM,0,?,0
Cc1nc2ccc(S(=O)(=O)NC(C(=O)N3CCN(c4ccc(Cl)cc4)CC3)C(C)C)cc2s1 (centres undefined),-,0,-,0
O=C(O)CCNc1cc(N2CCN(C(=O)c3ccco3)CC2)c2noc3c2c1C(=O)c1ccccc1-3,?,?,0,0

# From PubChem BioAssay
